Measured values taken from patent US20080003569A1, “Method for the Detection of Intracellular Parameters With Luminescent Protein Probes for the Screening of Molecules Capable of Altering Said Parameters” (priority 2004, published 2008).

The chains behind the UniProt entries cited, without tags or fusion partners. Where a name states a change or a piece, a line headed by the entry shows the natural chain unless it says otherwise.
UniProt P41146: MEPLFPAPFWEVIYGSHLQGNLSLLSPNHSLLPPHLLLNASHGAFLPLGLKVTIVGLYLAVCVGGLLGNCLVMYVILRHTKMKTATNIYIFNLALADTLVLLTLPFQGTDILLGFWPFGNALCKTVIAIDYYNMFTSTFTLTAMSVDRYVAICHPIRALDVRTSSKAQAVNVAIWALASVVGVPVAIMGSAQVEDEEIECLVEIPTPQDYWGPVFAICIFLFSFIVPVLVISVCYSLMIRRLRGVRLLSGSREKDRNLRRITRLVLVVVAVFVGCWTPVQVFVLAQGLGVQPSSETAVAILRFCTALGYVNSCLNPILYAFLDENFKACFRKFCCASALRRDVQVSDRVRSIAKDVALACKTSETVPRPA

Molecular target: wild-type ORL1 receptor (Homo sapiens, UniProt P41146)
Conditions: control CHO cells expressing an ORL1 wild-type receptor, stimulated with nociceptine

Nociceptine
increase in cps: does not induce any increase in cps
